# Binding of CDR-mutated scFvs to a peptide of the spike HR2 region

Target peptide (SARS-CoV-2 spike, HR2 region): PDVDLGDISGINAS

Each scFv is VH, three GGGGS repeats, VL, as in the parent Ab-14, and differs from it in the CDRs of the light chain only.
VH: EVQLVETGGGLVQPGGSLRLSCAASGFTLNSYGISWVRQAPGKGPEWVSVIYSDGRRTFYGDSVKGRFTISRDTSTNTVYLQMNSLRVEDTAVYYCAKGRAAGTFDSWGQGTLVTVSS
VL: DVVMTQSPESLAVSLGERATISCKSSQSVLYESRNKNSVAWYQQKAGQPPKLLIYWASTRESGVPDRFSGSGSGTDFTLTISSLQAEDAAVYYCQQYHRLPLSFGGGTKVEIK

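The parent was found by panning a naive human phage display library on the peptide. Variants in AAYL50 differ from the parent at up to three CDR positions; double and triple changes were sampled at random. The assay is AlphaSeq: two haploid yeast populations carry antibody and antigen on their surface. After mating in shaken culture at 30 °C for 16 h, diploids were selected and their barcode pairs sequenced. Read counts were normalised to the haploid input and turned into Kd by a linear fit to BCL2-family pairs of known affinity, for each replicate. The assay was run in three technical replicates.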

Each variant is given by its three light chain CDRs, as the data file delimits them; those of the parent are KSSQSVLYESRNKNSVA, WASTRES, QQYHRLPLS.
Every variant below is changed at N37 of the VL (sequential numbering).
Kd is apparent (estimated from mating counts) and averaged on the log scale over replicates with a signal. Smaller is tighter.
An entry "nd" has no value in the source: the pair was not observed among the diploids in any replicate. This suggests poor binding but is not conclusive.

The variant KSSQSVLYESQNKIFVA | WASTRES | QQYHRLPLS gave 16 µM (2 of 3 replicates). With KSSQSVLYESRNKLSVA | WASTREG | QQYHRLPLS the result was nd (0 of 3 replicates). The variant KSSQSVLYESRNKPSVA | WASTRES | QQYHRLPCS gave 510 nM (3 of 3 replicates). The variant KSSLSVLYESRNKSSVA | WASTRES | QQYHRLPLQ gave 52 nM (3 of 3 replicates). The variant KSSQSVLYESRNKFEVA | WASTRES | QQYHRRPLS gave 8.5 µM (1 of 3 replicates). For KSSISVLYEYRNKCSVA | WASTRES | QQYHRLPLS, the assay gave 140 nM (3 of 3 replicates). The variant KSSQSVLYESRNKCSVA | WAKTRES | QQYHRPPLS gave nd (0 of 3 replicates). For KSSQSVLYESRNKSSVA | WASTRES | QQYVRLPLE, the assay gave 160 nM (3 of 3 replicates). The variant KSSQSVLYESRNAWSVA | WASTREP | QQYHRLPLS gave nd (0 of 3 replicates).

For KSSQSVLYESRNKVSVA | WASTRES | WQYHRLPLS, the assay gave 160 µM (2 of 3 replicates). The variant KSSQSVLYESRNKQSVA | WMSTRES | QQYHRCPLS showed nd (0 of 3 replicates). The variant KSEQHVLYESRNKISVA | WASTRES | QQYHRLPLS showed nd (0 of 3 replicates). The variant KSSNSVLYESRNKSSVA | WASTRES | QQYTRLPLS showed 290 nM (3 of 3 replicates). With KSSQSVLYESRNKFSVA | WASTRES | QQYQRLPLS the result was 12 nM (3 of 3 replicates). The variant WSSQSVLYESWNKDSVA | WASTRES | QQYHRLPLS gave 6.0 µM (3 of 3 replicates). For KSSQSVLYESRNKISVK | TASTRES | QQYHRLPLS, the assay gave nd (0 of 3 replicates). For KSSQSVLYPSRNKISVA | WASTRES | NQYHRLPLS, the assay gave nd (0 of 3 replicates). The variant KSHQSVLYESFNKGSVA | WASTRES | QQYHRLPLS showed 5.0 µM (2 of 3 replicates).

The variant KSSQSVLYETRNKVSVA | WASTREY | QQYHRLPLS gave 1.8 µM (3 of 3 replicates). The variant KSSQSVLYESRNKMSVA | WASTRTS | QQYHRLPLS gave 160 nM (3 of 3 replicates). For KSSQSVLYESRNLLSVA | WASCRES | QQYHRLPLS, the assay gave 3.1 µM (3 of 3 replicates). With ASSQSVLYEPRNKISVA | WASTRES | QQYHRLPLS the result was 15 µM (3 of 3 replicates). The variant KSSQSGLYESRNKPSVP | WASTRES | QQYHRLPLS showed 2.0 µM (1 of 3 replicates). The variant KSSQSVLYESRNKWSVA | WASTRES | QQYHRLPLC gave 1.6 µM (3 of 3 replicates). For KSSQSVLYESRNKRSVA | WACTRES | QQYHRLPLQ, the assay gave 25 µM (2 of 3 replicates). With KSSHSVLYESRNKESVA | WASTRES | QQYHRLRLS the result was nd (0 of 3 replicates). The variant KDNQSVLYESRNKESVA | WASTRES | QQYHRLPLS gave 78 nM (3 of 3 replicates).

The variant KSSQSVLYESRNKWGVA | WASTRES | QQYHMLPLS gave 120 nM (3 of 3 replicates). With KSSQSVLYESRNKECVA | WASTRES | QQYHRLFLS the result was 760 nM (3 of 3 replicates). The variant KSSQSVLYESRNKSSVK | WASTRAS | QQYHRLPLS gave 490 µM (1 of 3 replicates). The variant KSSQSVLYRSRNKPSVA | FASTRES | QQYHRLPLS showed 110 µM (1 of 3 replicates). With KSSQSVLYESRNKLSVT | WASTREM | QQYHRLPLS the result was nd (0 of 3 replicates).

Repeated from above, the 5 best binders with a signal in all replicates:

For KSSQSVLYESRNKFSVA | WASTRES | QQYQRLPLS, the assay gave 12 nM (3 of 3 replicates).
For KSSLSVLYESRNKSSVA | WASTRES | QQYHRLPLQ, the assay gave 52 nM (3 of 3 replicates).
For KDNQSVLYESRNKESVA | WASTRES | QQYHRLPLS, the assay gave 78 nM (3 of 3 replicates).
For KSSQSVLYESRNKWGVA | WASTRES | QQYHMLPLS, the assay gave 120 nM (3 of 3 replicates).
For KSSISVLYEYRNKCSVA | WASTRES | QQYHRLPLS, the assay gave 140 nM (3 of 3 replicates).

In this assay the parent's reference entry averaged 4.4 nM; its copy inside this library read 48 nM.
As a blank, each scFv also met three strains without target: over library AAYL50, 18% of these pairings were detected, typically at 15 µM and seldom below 970 nM.

From the AlphaSeq antibody data of Engelhart et al. 2022 (doi:10.1038/s41597-022-01779-4), copy in the FLAb collection.